Measurements taken from patent US8256433B2 (priority 1999, dated 2012).
Read-outs that look alike come from different tables or passages of the source.

Tests used:
[1] = test system: healthy adult male smokers
[2] = test system: healthy adult male smokers; conditions: all dose levels combined; for mean craving: scale of 0 to 10
[3] = per cigarette containing 6 to 11 mg; Henningfield 1995; cited from earlier work

| Compound | nicotine concentration on storage (pH 3) | Incidence of Adverse Event: Cough ([1]; number of events) | Incidence of Adverse Event: Lightheadedness ([1]; number of events) | Incidence of Adverse Event: Throat irritation ([1]; number of events, inhaled nicotine, 18 healthy adult male smokers) | Subjects Experiencing AE: Lightheadedness ([1]; number of subjects of 18) | Subjects Experiencing AE: Throat irritation ([1]; number of subjects of 18) | Serious AEs ([1]; whole study) | Total adverse events (AEs) recorded ([1]; whole study) | mean craving versus pre-dose baseline ([2]; 4 hours of monitoring) | mean craving ([2]; pre-dose baseline) | mean craving ([2]; within 5 minutes post-dosing) | concentration of nicotine over time (higher pH values) | nicotine the smoker typically absorbs [3] |
| --- | --- | --- | --- | --- | --- | --- | --- | --- | --- | --- | --- | --- | --- |
| CN1CCCC1c1cccnc1.O=C(O)C(O)C(O)C(=O)O (stereo not shown) [Nicotine Bitartrate, nicotine bitartrate] | in effect unaltered | – | – | – | – | – | – | – | – | – | – | – | – |
| CN1CCCC1c1cccnc1 (stereo not shown) [nicotine, S-3-(1-methyl-2-pyrrolidinyl)pyridine] | – | 20 | 22 | 46 | 11 | 17 | No serious AEs | 119 | remained below pre-dose baseline | 4.9 | 1.4 | decreased over time | 1 to 3 mg |
